A selection: hits, their analogues and other compounds. The true share with any hit is near 1.8%.
E-sel inducer: induces E-selectin expression in human endothelial cells; HUVEC E-selectin immunofluorescence imaging; normalized: neutral wells 0, TNF-alpha wells 100; P16581; activation, % at 7.58 µM; 260,000 compounds, 0.37% hits;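 active means mean E-selectin-positive cell signal at least 10% of the positive control, reached in at least 60% of replicates, without over 20% cell loss; inconclusive means no rule given, readout overlaps actives, possibly toxicity-flagged; inactive means the rest, including those meeting only one limit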
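System: HUVEC / Compound: single concentration / Signal: immunofluorescence imaging / Read-out: percent E-selectin-positive cells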
DENV2 CPE rescue: inhibitors of DENV2 cytopathic effect; DENV2-infected cells, cytopathic effect rescue, plate reader; CPE inhibition, % at 9.99 µM; 350,000 compounds, 1.7% hits; in the data active means CPE inhibition above about 20%, passing the limit was not always enough; inconclusive means no clear call, values can overlap the other calls; tested in BHK-21 cells;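 further: 0% = median of neutral control wells and 100% = median of positive control wells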
Yeast UUG start: yeast start codon fidelity modulation; actives 0.13% (n = 350,000); activity score, % at 18.7 µM; S. cerevisiae UUG-firefly luciferase reporter, luminescence/redox ratio;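 active = replicate mean at a twofold rise or more, about +100% in these data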;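 note: firefly luciferase made from a UUG start codon reports start codon fidelity; reporter light over untreated wells divided by growth signal over untreated wells; some hits fall short of that in this replicate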
Cneo AK release: causes C. neoformans cell lysis. AID 651654. adenylate kinase release luminescence, 4 h; normalised: neutral wells 0, clomiphene wells 100. 360,000 compounds, 0.2% hits. lysis activity, % at 15 µM;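 active means mean lysis activity across replicates of at least 80%, whatever share of replicates individually reach that level; inactive means mean lysis activity below 80%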
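Test system: log-phase Cryptococcus neoformans yeast cells. Input: 5 × 10^6 yeast cells/mL. Medium: fresh YPD growth medium. Doses: single dose. Incubation: static 4 h at 37 °C with compound, 1 h detection. Measured by: luminescent adenylate kinase detection reagent. Read-out: signal increase indicating cell lysis. Benchmarks: Clomiphene.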
An asterisk follows results filed as active; u = inconclusive; x = not tested or not shown; ! = not confirmed by another sample.

cpd | Compound | E-sel inducer | DENV2 CPE rescue | Yeast UUG start | Cneo AK release
1 | Nc1cccc2c(O)cccc12 | 0 | 32* | x | x
2 | CNC(=O)C[C@@H]1CC[C@@H]2[C@@H](COc3ccc(NC(=O)c4ccc(C(F)(F)F)cc4)cc3C(=O)N2C)O1 | 0 | 2 | 6 | 4
3 | Cc1noc(C)c1NC(=O)N(C)C[C@@H]1Oc2ccc(NS(=O)(=O)c3cn(C)cn3)cc2CC(=O)N([C@H](C)CO)C[C@H]1C | x | -12 | 1 | 103*
4 | Cc1noc(C)c1NC(=O)N(C)C[C@H]1Oc2ccc(NS(=O)(=O)c3cn(C)cn3)cc2CC(=O)N([C@H](C)CO)C[C@@H]1C | x | 48* | -9 | 2
5 | COc1ccc(NC(=O)N(C)C[C@@H]2Oc3ccc(NS(=O)(=O)c4cn(C)cn4)cc3CC(=O)N([C@H](C)CO)C[C@@H]2C)cc1 | -3 | 77* | -5 | -1
6 | COc1ccc(CNC(=O)C[C@@H]2CC[C@@H](NC(=O)c3cccc(F)c3)[C@@H](CO)O2)cc1 | 0 | -5 | 27 | 3
7 | C[C@H](CO)N1C[C@H](C)[C@@H](CN(C)S(=O)(=O)c2cn(C)cn2)OCCCC[C@H](C)Oc2ccc(NS(=O)(=O)c3ccc(F)cc3)cc2C1=O | 0 | u | 18 | -4
8 | NC(=O)CC(NC(=O)Cc1cccc2ccccc12)c1ccc(NCCc2ccccc2F)c([N+](=O)[O-])c1 (centres undefined) | x | 21* | -19 | 15
9 | S=C1NC2(CCCC2)N=C1c1ccccc1 | 2 | 0 | x | x
10 | CC(C)CC1(C)N=C(c2ccccc2)C(=S)N1 (centres undefined) | 4 | -5 | -15 | 82*
11 | COc1ccc2c3c(n(C)c2c1)[C@@H](CO)N(Cc1ccncc1)CC31CN(C(=O)Cc2ccncc2)C1 | 1 | 8 | x | x
12 | COc1ccc2c3c([nH]c2c1)[C@@H](CO)N(C(=O)Nc1ccccc1F)CC31CCN(C(=O)c2ccccc2F)CC1 | 0 | -8 | x | x
13 | Cc1ccc(CNC(=O)c2cccc3c2C(=O)c2ccc(N4CCOCC4)cc2S3(=O)=O)cc1 | 0 | 31* | -8 | 3
14 | CC(=O)N(C)C[C@H]1Oc2ncc(C#Cc3ccccc3)cc2C(=O)N([C@@H](C)CO)C[C@H]1C | 0 | -7 | 0 | -1
15 | CC(=O)c1ccc(OC(C)C(=O)NC2CCCCC2C)cc1 (centres undefined) | x | 67* | -4 | 1
16 | CN(C)C(=O)C[C@H]1C=C[C@H](NC(=O)C2CCOCC2)[C@H](CO)O1 | 0 | -3 | x | x
17 | COCC#Cc1ccc2c(c1)O[C@@H](CN(C)C(=O)NC(C)C)[C@H](C)CN([C@@H](C)CO)S2(=O)=O | 0 | -1 | 3 | 14
18 | CC1(C(=O)Nc2cccc(OC(F)(F)F)c2)Cc2c(-c3cccc(C(N)=O)c3)ccnc2O1 (centres undefined) | 0 | 21* | -16 | 1
19 | CC1(C(=O)NCc2cccs2)Cc2c(-c3cccc(C(F)(F)F)c3)ccnc2O1 (centres undefined) | 0 | 27* | -3 | 3
20 | CC(C)c1cc(-c2cc(C(=O)NCc3ccccc3)on2)nc(NC2CCCC2)n1 | 0 | 22* | -14 | -1
21 | Cc1cn([C@H]2C=C[C@@H](CO)O2)c(=O)[nH]c1=O | 2 | 29*! | -34 | 2
22 | COC(=O)/C=C/c1cnc[nH]1 | 1 | 51* | 15 | -1
23 | COC(=O)/C=C/c1ccc(-n2cncn2)cc1 | x | -5 | -14 | 0
24 | Cc1ccc(NC(=O)C2CCCCC2)cc1C | 0 | 70* | -18 | 3
25 | O=C(CC1CC1)N1CC(=O)N2[C@H](CO)[C@@H](c3ccc(C#Cc4ccccc4)cc3)[C@@H]2C1 | -1 | 3 | x | x
26 | CNC[C@H]1OCCCC[C@H](C)Oc2ccc(NS(=O)(=O)c3c(C)noc3C)cc2C(=O)N([C@@H](C)CO)C[C@@H]1C | 0 | -9 | 7 | -4
27 | CNC[C@@H]1OCCCC[C@@H](C)Oc2ccc(NS(=O)(=O)c3c(C)noc3C)cc2C(=O)N([C@@H](C)CO)C[C@H]1C | x | 29* | -20 | -13
28 | CNC[C@@H]1OCCCC[C@H](C)Oc2ccc(NS(=O)(=O)c3c(C)noc3C)cc2C(=O)N([C@@H](C)CO)C[C@H]1C | 0 | 123* | -9 | -3
29 | COc1ccc(C)cc1NC(=O)C1CCN(S(=O)(=O)c2cccc3cccnc23)CC1 | x | 28* | 6 | 1
30 | COc1ccc(NC(=O)C2CCN(S(=O)(=O)c3cccc4cccnc34)CC2)cc1OC | x | -6 | 1 | 1

Next compounds follow:
cpd | Compound | E-sel inducer | DENV2 CPE rescue | Yeast UUG start | Cneo AK release
31 | CSc1ccccc1OCc1cc(C(=O)N2CCc3[nH]cnc3C2c2ccccn2)no1 (centres undefined) | -1 | 50* | -35 | 8
32 | O=C(Cc1ccccc1)N1C[C@@H]2[C@H](c3ccccc31)[C@@H](CO)N2C(=O)Cc1ccccc1 | 0 | -2 | 10 | 3
33 | C[C@@H]1CCCCO[C@@H](CN(C)C(=O)Nc2ccc3c(c2)OCO3)[C@H](C)CN([C@@H](C)CO)C(=O)c2cc(N(C)C)ccc2O1 | 0 | x | x | x
34 | CCCN(C)C[C@@H]1Oc2cc(C#CCC(C)C)ccc2S(=O)(=O)N([C@H](C)CO)C[C@@H]1C | 1 | 34* | -3 | -8
35 | CCCN(C)C[C@H]1Oc2cc(C#CCC(C)C)ccc2S(=O)(=O)N([C@@H](C)CO)C[C@H]1C | 0 | -4 | -4 | 2
36 | CCCC#Cc1ccc2c(c1)O[C@@H](CN(C)CCC)[C@@H](C)CN([C@@H](C)CO)S2(=O)=O | 85* | 1 | 10 | -2
37 | O=C(C[C@@H]1CC[C@@H]2[C@H](COC[C@H](O)CN2C(=O)c2ccccc2)O1)N1CCOCC1 | 0 | -5 | x | 2
38 | Cc1ccc(COc2ccc(/C=N/O)cc2)cc1 | 107* | 2 | x | x
39 | CCOc1ccc(/C=N/O)cc1 | 0 | x | -13 | -8
40 | O=C(Nc1ccc2c(c1)OCO2)N[C@H]1CC[C@@H](CCNC(=O)C2CCC2)O[C@@H]1CO | -1 | 8 | 14 | 5
41 | CC(=O)N[C@H]1C=C[C@@H](CC(=O)NCc2ccc(Cl)cc2)O[C@@H]1CO | 0 | 1 | -8 | 6
42 | COc1ccc(CNC(=O)C[C@@H]2C=C[C@@H](NC(=O)c3ccc4c(c3)OCO4)[C@H](CO)O2)cc1 | 0 | 44* | -4 | -8
43 | O=C(Nc1ccc2c(c1)OCO2)N[C@@H]1CC[C@H](CCNC(=O)C2CCC2)O[C@@H]1CO | -1 | 32* | -8 | -7
44 | O=C(C[C@@H]1CC[C@@H](NC(=O)c2ccc(F)cc2)[C@@H](CO)O1)NCCc1ccncc1 | 1 | 23* | -21 | -1
45 | CC(=O)N[C@H]1C=C[C@H](CC(=O)NCc2ccc(Cl)cc2)O[C@H]1CO | 0 | 32* | -15 | 2
46 | COc1ccc(CNC(=O)C[C@@H]2C=C[C@H](NC(=O)c3ccc4c(c3)OCO4)[C@H](CO)O2)cc1 | 0 | 7 | -10 | -7
47 | C[C@@H]1CN([C@H](C)CO)C(=O)c2cc(NC(=O)Nc3ccc(F)cc3)ccc2O[C@@H](C)CCCCO[C@@H]1CN(C)Cc1ccncc1 | 0 | 2 | -2 | 3

4 of the compounds above, as labelled records.
32. O=C(Cc1ccccc1)N1C[C@@H]2[C@H](c3ccccc31)[C@@H](CO)N2C(=O)Cc1ccccc1
- E-sel inducer: 0
- DENV2 CPE rescue: -2
- Yeast UUG start: 10
- Cneo AK release: 3

33. C[C@@H]1CCCCO[C@@H](CN(C)C(=O)Nc2ccc3c(c2)OCO3)[C@H](C)CN([C@@H](C)CO)C(=O)c2cc(N(C)C)ccc2O1
- E-sel inducer: 0
- DENV2 CPE rescue: x
- Yeast UUG start: x
- Cneo AK release: x

34. CCCN(C)C[C@@H]1Oc2cc(C#CCC(C)C)ccc2S(=O)(=O)N([C@H](C)CO)C[C@@H]1C
- E-sel inducer: 1
- DENV2 CPE rescue: 34*
- Yeast UUG start: -3
- Cneo AK release: -8

35. CCCN(C)C[C@H]1Oc2cc(C#CCC(C)C)ccc2S(=O)(=O)N([C@@H](C)CO)C[C@H]1C
- E-sel inducer: 0
- DENV2 CPE rescue: -4
- Yeast UUG start: -4
- Cneo AK release: 2
